The record followed here is ChEMBL document CHEMBL5727955, “Aminopyrazoles as janus kinase inhibitors” (2020).

Amino acid sequences for entries named in this document (tags omitted). A change or cut given only in a name is not applied to a line headed by its entry.
UniProt O60674: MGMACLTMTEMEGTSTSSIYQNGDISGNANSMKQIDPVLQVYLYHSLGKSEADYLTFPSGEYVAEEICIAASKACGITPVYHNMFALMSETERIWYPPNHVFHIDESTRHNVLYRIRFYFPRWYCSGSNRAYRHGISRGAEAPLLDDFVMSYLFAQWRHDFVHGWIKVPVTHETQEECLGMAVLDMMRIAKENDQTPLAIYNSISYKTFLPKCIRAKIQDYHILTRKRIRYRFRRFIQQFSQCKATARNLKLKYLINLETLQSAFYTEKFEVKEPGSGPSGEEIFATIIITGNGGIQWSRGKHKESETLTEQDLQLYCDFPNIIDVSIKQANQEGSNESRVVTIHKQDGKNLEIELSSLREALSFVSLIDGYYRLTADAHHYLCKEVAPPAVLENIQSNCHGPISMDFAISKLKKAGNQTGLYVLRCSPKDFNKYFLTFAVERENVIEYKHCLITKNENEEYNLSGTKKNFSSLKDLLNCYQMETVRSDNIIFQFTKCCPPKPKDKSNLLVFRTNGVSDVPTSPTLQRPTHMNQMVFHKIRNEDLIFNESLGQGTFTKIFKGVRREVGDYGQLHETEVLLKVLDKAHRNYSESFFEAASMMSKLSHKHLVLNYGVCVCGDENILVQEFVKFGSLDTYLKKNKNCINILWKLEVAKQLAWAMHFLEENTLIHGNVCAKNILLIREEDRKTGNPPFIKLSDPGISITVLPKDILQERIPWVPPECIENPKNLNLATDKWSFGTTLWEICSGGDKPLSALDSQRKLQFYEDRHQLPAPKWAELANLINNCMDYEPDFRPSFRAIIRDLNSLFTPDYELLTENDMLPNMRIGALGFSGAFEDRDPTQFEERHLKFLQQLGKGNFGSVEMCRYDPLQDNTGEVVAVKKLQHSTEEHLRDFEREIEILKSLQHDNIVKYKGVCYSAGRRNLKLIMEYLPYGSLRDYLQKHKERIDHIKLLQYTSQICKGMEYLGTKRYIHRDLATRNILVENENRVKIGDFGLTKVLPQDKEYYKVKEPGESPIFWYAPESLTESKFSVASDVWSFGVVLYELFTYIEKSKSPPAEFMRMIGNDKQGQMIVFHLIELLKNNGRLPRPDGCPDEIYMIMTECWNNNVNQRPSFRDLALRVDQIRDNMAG

The target in this test is Tyrosine-protein kinase JAK2 (Homo sapiens, UniProt O60674). The test is described as follows: Biochemical HTRF Enzyme Assay Protocol: The basic assay protocol is as follows: First, 250 nL of diluted compounds in DMSO were dispensed into the wells of a dry 384-well Black plate (GreinerFluotrac™ catalog number: 781076; Greiner Bio-One GmbH, Frickenhausen, Germany) using a Labcyte Echo® 555 acoustic dispenser ([…], Sunnyvale, Calif., USA). Subsequent reagent additions employed an Agilent™ Bravo™ liquid handling system (Aligent Technologies, Santa Clara, Calif., USA). […] After equilibration, 2 μL of 10×ATP in 1× assay buffer was added to initiate the kinase reaction and the plates were shaken and then incubated at ambient temperature for 120 minutes. At the end of the incubation, 20 μL of 2× stop buffer (Streptavidin-Dylight 650/100 mL catalogue number: 8454B (Invitrogen™/Life Technologies/ThermoFisher Scientific Inc., Waltham, Mass., USA); Europium-tagged pY20 antibody (PerkinElmer™ catalogue number: AD0067 (PerkinElmer™, Waltham, Mass., USA)); EDTA; HEPES; and Triton™ X-100 (Sigma-Aldrich, St. Louis, Mo., USA) was added to quench the reaction.

As a reminder, the IC50 is the concentration that gives 50% inhibition. Read a low IC50 as greater potency. For `N#C[C@H]1CCOC[C@@H]1n1cc(C(N)=O)c(Nc2ccc(Cl)cc2)n1`, the IC50 was 1.92 nM.
Consider `N#C[C@H]1CCOC[C@@H]1n1cc(C(N)=O)c(Nc2ccc(Cl)c(Cl)c2)n1`, for which the IC50 turned out to be 23.4 nM.
